In PubChem BioAssay AID1947 (The Scripps Research Institute Molecular Screening Center, 2009):
This is a selection; strong and weak results do not stand in their true shares. Activity calls are given as the source filed them.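 How the source made its calls: active means inhibition above the screen mean inhibition plus 3 SD, computed separately per campaign (cut at about 18% in these data); inactive means the rest.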

test system: Fam108B (ABHD17B) serine hydrolase [Mus musculus]; test: mouse Fam108B serine hydrolase inhibitors, primary screen, counter-screen for RBBP9 inhibitor project, biochemical, fluorescence polarization (AID 1947); conditions: recombinant Fam108B, FP-Rh probe fluorescence polarization; at 9.51 µM; stronger effect = higher value;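 further: inhibitors lower polarization as less probe binds the enzyme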

| Structure (SMILES) | inhibition |
| --- | --- |
| CN1CCN(CCOC(=O)C(O)(c2ccccc2)c2ccccc2)CC1 | inactive: 1.14% |
| COc1ccc(NC2CCN(C(=O)OC(C)(C)C)CC2)cc1 | inactive: 1.83% |
| COc1cc(C(=O)NCC2(N3CCCCC3)CCCCC2)ccc1OC(F)F | inactive: -0.73% |
| O=C(NCC1(N2CCOCC2)CCCCC1)c1cc(=O)[nH]c2ccccc12 | inactive: 6.43% |
| O=C(NCC1(N2CCCCC2)CCCCC1)c1cccc(C(F)(F)F)c1 | inactive: 3.61% |
| O=C(NCC1(N2CCCCC2)CCCCC1)c1cccc([N+](=O)[O-])c1 | inactive: -3.07% |
| N#CC1(Nc2ccccc2)CCN(CCc2ccccc2)CC1 | inactive: 5.4% |
| CCN1CCC(Nc2ccc(Cl)cc2)CC1 | inactive: -0.83% |
| O=C(NCC1(N2CCCCC2)CCCCC1)c1ccc(OC(F)F)cc1 | inactive: -2.24% |
| CN1CCC(Nc2cccc(F)c2)CC1 | inactive: 0.48% |
| COc1cc(OC)c(C(=O)NCC2(N(C)C)CCCCC2)cc1OC | inactive: -1.21% |
| CN(C)c1cccc(C(=O)NCC2(N3CCCCC3)CCCCC2)c1 | inactive: -1.01% |
| COc1ccc(CN(CCCl)CCCl)cc1Cl | inactive: 0.22% |
| CC(C)c1ccc(NC2CCN(C(=O)OC(C)(C)C)CC2)cc1 | inactive: 4.74% |
| CCOC(=O)N1CCC(Nc2ccc(OC)cc2)CC1 | inactive: -0.95% |
| N#CC1(Nc2ccccc2)CCN(Cc2ccccc2)CC1 | inactive: -0.63% |
| O=C(OC1CN2CCC1CC2)C1c2ccccc2Oc2ccccc21 (stereo unspecified) | inactive: 2.84% |
| O=C(NCC1(N2CCOCC2)CCCCC1)c1cc2ccccc2o1 | inactive: 1.71% |
| Cc1cc(C)cc(N(C(=O)c2ccccc2)C2CCN(C(=O)OC(C)(C)C)CC2)c1 | inactive: 2.1% |

| Structure (SMILES) | inhibition |
| --- | --- |
| O=C(NCC1(N2CCCCC2)CCCCC1)c1ccc(Cl)nc1 | inactive: -2.27% |
| CSc1ccccc1C(=O)NCC1(N2CCCCC2)CCCCC1 | inactive: -0.7% |
| O=C(NCC1(N2CCCCC2)CCCCC1)c1cccs1 | inactive: -1.74% |
| O=C(NCC1(N2CCCCC2)CCCCC1)c1ccc(=O)[nH]c1 | inactive: 4.63% |
| COc1ccc(C(=O)NCC2(N3CCCCC3)CCCCC2)c(OC)c1OC | inactive: -4.08% |
| CC(C)(C)OC(=O)N1CCC(N(C(=O)c2ccccc2)c2ccc(F)cc2)CC1 | inactive: 1.15% |
| COc1ccc(C(=O)NCC2(N3CCCCC3)CCCCC2)cc1 | inactive: -1.04% |
| Cc1ccc(OCC(C)C)c(CN(CCCl)CCCl)c1 | inactive: 1.67% |
| CCOC(=O)N1CCC(Nc2cccc(C)c2)CC1 | inactive: -5.52% |
| COc1ccc(NC2CCN(CCc3ccccc3)CC2)c(OC)c1 | inactive: -0.07% |
| O=C(NCC1(N2CCCCC2)CCCCC1)c1ccc(F)cc1 | inactive: -1.35% |
| CCOc1ccc(C)cc1CN(CCCl)CCCl | inactive: 0.42% |
| CN(C)c1ccc(C(=O)NCC2(N3CCCCC3)CCCCC2)cc1 | inactive: 2.38% |
| CCN1CCC(Nc2cccc(F)c2)CC1 | inactive: -4.04% |
| Fc1ccccc1NC1CCN(Cc2ccccc2)CC1 | inactive: 2.1% |
| Cc1ccc(C(=O)NCC2(N3CCCCC3)CCCCC2)o1 | inactive: 3.69% |
| COc1cc(OC)cc(C(=O)NCC2(N3CCCCC3)CCCCC2)c1 | inactive: 3.71% |
| CCCOc1ccc(C)cc1CN(CCCl)CCCl | inactive: 0.17% |
| CN1CCC(Nc2ccc(Cl)cc2)CC1 | inactive: 3.61% |

| Structure (SMILES) | inhibition |
| --- | --- |
| CCC(CO)(C(=O)OC1CN2CCC1CC2)c1ccccc1 (stereo unspecified) | inactive: -1.45% |
| COc1cc(OC)cc(C(=O)NCC2(N3CCOCC3)CCCCC2)c1 | inactive: 2.15% |
| COc1cccc(C(=O)N(c2cc(C)cc(C)c2)C2CCN(C(=O)OC(C)(C)C)CC2)c1 | inactive: 4.64% |
| CCCOc1ccc(C(=O)NCC2(N(C)C)CCCCC2)cc1 | inactive: -2.75% |
| O=C(O)C1(Nc2ccccc2)CCN(Cc2ccccc2)CC1 | inactive: -3.67% |
| CC(C)(C)OC(=O)N1CCC(Nc2ccccc2)CC1 | inactive: -5.04% |
| CN1CCC(Nc2ccc(F)c(Cl)c2)CC1 | inactive: -1.6% |
| CCOc1ncccc1C(=O)NCC1(N2CCOCC2)CCCCC1 | inactive: 2.24% |
| CCc1cc(C(=O)NCC2(N3CCCCC3)CCCCC2)sc1C | inactive: -5.14% |
| O=C(OC1CN2CCC1CC2)C1c2ccccc2C=Cc2ccccc21 (stereo unspecified) | inactive: 0.7% |
| N/C(=N\O)c1c(N)no[n+]1[O-] | inactive: 1.25% |
| CCOC(=O)N1CCC(Nc2ccc(C)cc2)CC1 | inactive: -1.98% |
| COc1ccc(C(=O)NCC2(N3CCOCC3)CCCCC2)cc1OC | inactive: -2.41% |
| CCCN1CCC(Nc2cc(OC)cc(OC)c2)CC1 | inactive: 1.12% |
| c1ccc(CN2CCC(Nc3ccccc3)CC2)cc1 | inactive: -2.64% |
| CN(C)C1(CNC(=O)c2cccc(C#N)c2)CCCCC1 | inactive: -0.62% |
| CC(C)(C)OC(=O)N1CCC(N(C(=O)c2ccccc2)c2ccc(Cl)cc2)CC1 | inactive: 6.77% |
| N#Cc1ccc(C(=O)NCC2(N3CCCCC3)CCCCC2)cc1 | inactive: -0.57% |
